# Measured affinities in a library of Ab-95 light chain variants

The measurements come from Engelhart et al. 2022 (doi:10.1038/s41597-022-01779-4) through the FLAb antibody collection.

Antigen: PDVDLGDISGINAS, a 14-residue peptide of the SARS-CoV-2 spike HR2 region.

Parent scFv Ab-95: VH joined to VL by the linker GGGGSGGGGSGGGGS. Changes lie in the light chain CDRs alone.
VH: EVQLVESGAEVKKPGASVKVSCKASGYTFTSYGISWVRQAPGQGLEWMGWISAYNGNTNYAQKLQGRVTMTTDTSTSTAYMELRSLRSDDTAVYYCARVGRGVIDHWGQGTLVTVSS
VL: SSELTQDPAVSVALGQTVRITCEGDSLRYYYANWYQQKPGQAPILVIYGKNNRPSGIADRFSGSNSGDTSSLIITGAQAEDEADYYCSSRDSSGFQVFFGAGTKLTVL

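Phage display of a naive human antibody library on the peptide gave the parent. Library AAYL52 holds single substitutions and randomly drawn double and triple substitutions in the CDRs. Affinity was read by AlphaSeq, a pooled yeast mating assay with surface-displayed partners. Binding brings cells together so that they mate, and sequencing counts the barcode pairs among the diploids. A regression on co-assayed BCL2-family reference pairs converts the normalised counts of each replicate to an apparent Kd. Each pool was mated in three replicate cultures.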

Each variant is given by its three light chain CDRs, as the data file delimits them; those of the parent are EGDSLRYYYAN, GKNNRPS, SSRDSSGFQVF.
All variants listed here change S89 of the VL, counted from its first residue.
Numbers give log10(Kd / nM), so 0 is 1 nM and 3 is 1 µM. Smaller is tighter.
A mean of the replicates is given; it leaves out those without a signal.
A pair that was not seen in any replicate is written "nd"; this usually means weak binding, but a binder can also be missed.
As a blank, each scFv also met three strains without target: over library AAYL52, 28% of these pairings were detected, typically at 3.91 and seldom below 2.90. For each scFv, signals with the empty controls are counted beside the result.

- EGDSLRSYYAN, GKNNRPS, SVRDSSGFQVL: 2.34 (3 of 3 replicates; controls 5 of 9)
- EGDVLRYYYAN, GKNNRPS, DERDSSGFQVF: 4.10 (1 of 3 replicates; controls 1 of 9)
- EGDSLRKYYAN, KKNNRPS, SMRDSSGFQVF: 3.59 (2 of 3 replicates; controls 2 of 9)
- EGDSLRYYYAN, GKNNRPS, SRRDHSGFQVF: 4.49 (3 of 3 replicates; controls 2 of 9)
- YGDSLRYYYAN, GKNNRPS, SRRDSSSFQVF: 3.03 (2 of 3 replicates; controls 4 of 9)
- GGDSLRYYYAN, GKNNRPS, SIRDSSGFQVF: 2.37 (3 of 3 replicates; controls 6 of 9)
- EGDSLRYYYAN, GKNNRPS, FDPDSSGFQVF: 4.57 (1 of 3 replicates; controls 2 of 9)
- EGRSLRYYYAN, GKNARPS, SVRDSSGFQVF: 2.45 (3 of 3 replicates; controls 4 of 9)
- EGDSLRYYYAN, GKNNRPS, SPRDISGFQVF: 2.12 (3 of 3 replicates; controls 2 of 9)
- EGDSLRYYYVN, GKNNRPS, SQRDSSGHQVF: 2.44 (3 of 3 replicates; controls 3 of 9)
- EGYSLRYYYAN, GKNNRPS, SNRDSSGFQVF: 3.07 (3 of 3 replicates; controls 3 of 9)
- EGDSLRYYYAN, GKNNRPS, SFRDSSGFQVF: 2.90 (3 of 3 replicates; controls 4 of 9)
- EGDSLRYYRAN, GKNPRPS, SMRDSSGFQVF: 4.86 (2 of 3 replicates; controls 1 of 9)
- EFDSLRYYYAN, GKYNRPS, SPRDSSGFQVF: 3.71 (1 of 3 replicates; controls 4 of 9)
- EGDSLRYYYAN, GSNNRPE, SARDSSGFQVF: 1.91 (3 of 3 replicates; controls 3 of 9)
- EGDSWRYYYAN, GKNNRPG, SQRDSSGFQVF: nd (0 of 3 replicates; controls 2 of 9)
- EGDSPRYYYAN, GKNNRPS, SIRDSSGFQSF: 3.64 (3 of 3 replicates; controls 3 of 9)
- EGDSLRYYYAN, GDNNRPS, SHRDSSGSQVF: 1.57 (3 of 3 replicates; controls 5 of 9)
- EGDSLHYYYAN, GKNNCPS, SFRDSSGFQVF: 4.35 (2 of 3 replicates; controls 2 of 9)
- EGDSLRYYYAN, GKSNRVS, SQRDSSGFQVF: 4.13 (3 of 3 replicates; controls 4 of 9)
- EGYSLRYYYAN, VKNNRPS, SMRDSSGFQVF: nd (0 of 3 replicates; controls 3 of 9)
- EGDSLRYEYAN, GKNNRPS, SLRDSSGFMVF: 1.50 (3 of 3 replicates; controls 6 of 9)
- EGDSLRYYYAN, GKNNRPS, SLRDSSGFQVF: 3.19 (3 of 3 replicates; controls 1 of 9)
- EGTSLWYYYAN, GKNNRPS, SFRDSSGFQVF: 2.94 (3 of 3 replicates; controls 2 of 9)
- ESDSLRYYYAN, GDNNRPS, SDRDSSGFQVF: 2.96 (3 of 3 replicates; controls 3 of 9)
- EGDSLRYYYAK, WKNNRPS, SVRDSSGFQVF: 4.25 (2 of 3 replicates; controls 4 of 9)
- EKDSLRYYYAN, GHNNRPS, SCRDSSGFQVF: 3.80 (1 of 3 replicates; controls 0 of 9)
- EGDSVRYYYAN, LKNNRPS, SVRDSSGFQVF: nd (0 of 3 replicates; controls 3 of 9)
- EGDSLRYYYAN, GKNNRPS, STRESSWFQVF: 2.66 (3 of 3 replicates; controls 1 of 9)
- EGDSLRYYYQN, GKNNRPT, SWRDSSGFQVF: nd (0 of 3 replicates; controls 1 of 9)

Extract of 4 entries:

CDR-L1	CDR-L2	CDR-L3	mean log10 Kd (nM)	replicates with signal	control signals
EGDSLRYYYAN	GKSNRVS	SQRDSSGFQVF	4.13	3/3	4/9
EGDSLRYYYAN	GKNNRPS	STRESSWFQVF	2.66	3/3	1/9
EGDSLHYYYAN	GKNNCPS	SFRDSSGFQVF	4.35	2/3	2/9
EGDSLRYYYQN	GKNNRPT	SWRDSSGFQVF	nd	0/3	1/9